Test results reported in US10927155B2, “Dual inhibitory action peptidomimetic inhibitor for IL-33 and IL-1beta” (GEORGE MASON UNIVERSITY, priority 2015, dated 2021).

Tested on: IL-1β/IL-1R1 dependent signaling
Experiment: HEK-Blue IL-33/IL-1β reporter cells (SEAP) stimulated with IL-1β
Type: cell-based
Details: cytokine used instead of IL-1 as stimulus; FIG. 15
Description: HEK-Blue™ IL-33/IL-1β cells were purchased from InvivoGen. These cells were transfected with a reporter gene, secreted embryonic alkaline phosphatase (SEAP), under the control of the IFN-β minimal promoter fused to five NF-κB and five AP-1 binding sites. In the presence of bioactive IL1β and/or IL33, HEK-Blue cells activate the NF-κB and AP-1 pathways triggering the production of SEAP. SEAP activity in cell supernatant is quantified using a colorimetric enzyme assay (QUANTI-Blue™, InvivoGen).
HEK Blue IL-33/IL-1β Reporter Cells. HEK-Blue™ IL-33/IL-1β Cells were purchased from InvivoGen. These cells were generated by transfection with a reporter gene, secreted embryonic alkaline phosphatase (SEAP), under the control of the IFN-β minimal promoter fused to five NF-κB and five AP-1 binding sites. In the presence of bioactive IL-1β and/or IL-33, HEK-Blue cells activated the NF-κB and AP-1 pathways triggering the production of SEAP. SEAP activity in cell supernatant was quantified using a colorimetric enzyme assay (QUANTI-Blue™, InvivoGen). HEK Blue cells were grown in DMEM, 4.5 g/l glucose, 2 mM L-Glutamine, 10% (v/v) heat-inactivated fetal bovine serum (30 min at 56° C.). After two passages, cells were exposed to selective medium (DMEM, 4.5 g/l glucose, 2 mM L-Glutamine, 10% heat-inactivated FBS (v/v) with of blasticidin (30 μg/ml), hygromycin B ([…]), and Zeocin™ (100 mg/ml)). […]

In the case of “IL-2: cytokine specificity control [reference compound]”, the “signaling activity of cytokine specificity controls” value is reported as “no significant signaling activity”.
